The values that follow come from PubChem BioAssay AID504414 (Broad Institute, 2011).

The entries are a selection whose mix differs from that of the whole data set. Active and inactive are the calls of the source.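 The calls were made as follows: active = highest replicate inhibition of at least 40%; inactive = the rest.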

This assay addresses Golgi-associated PDZ and coiled-coil motif-containing protein (Homo sapiens) (UniProt Q9HD26). Description: CAL PDZ peptide-binding inhibitors, primary screen, biochemical, fluorescence polarization, Cer-tagged CAL PDZ, HTS (AID 504414).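 Also: plate controls were DMSO neutral control wells for no effect and unlabeled competitor peptide control wells for full effect.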 To be noted: purified CAL PDZ, TMR-peptide fluorescence polarization, 1 h; at 20 µM; active compounds read high.
For `CCOC(=O)N1CCC(Nc2ccc(OC)cc2)CC1`, the inhibition is inactive: -2.3%.

Turning to `O=C(NCC1(N2CCCCC2)CCCCC1)c1ccc(Cl)s1`, the inhibition was inactive: -0.187%.

Turning to `N#CC1(Nc2ccccc2)CCN(Cc2ccccc2)CC1`, the inhibition is inactive: -0.887%.

Take `COc1ccc(Cl)cc1C(=O)NCC1(N2CCOCC2)CCCCC1`: the inhibition is inactive: -0.244%. As for `CCOc1ccc(C)cc1CN(CCCl)CCCl`, the figure is inactive: 0.0396%; as for `O=C1CCN(Cc2ccccc2)CC1`, inactive: -6.26%; as for `O=C(NCC1(N2CCCCC2)CCCCC1)c1ccc(F)cc1`, inactive: -1.54%. With `O=P1(N(CCCl)CCCl)SCCCS1`, the inhibition was inactive: -0.0619%. As for `CCCCOc1ccc(C(=O)NCC2(N3CCOCC3)CCCCC2)cc1`, the figure is inactive: -3.48%; as for `COc1ccc(NC2CCN(CCc3ccccc3)CC2)c(OC)c1`, inactive: 0.101%. For `CCOC(=O)N1CCC(Nc2ccc(F)cc2)CC1` the value was inactive: 0.726%; for `COc1cc(C(=O)NCC2(N(C)C)CCCCC2)ccc1OC(F)F`, inactive: -1.15%. As for `CCOC(=O)N1CCC(Nc2cccc(C)c2)CC1`, the figure is inactive: -0.27%; as for `COc1cc(OC)cc(C(=O)NCC2(N3CCCCC3)CCCCC2)c1`, inactive: -2.37%; as for `CC(=O)N(c1ccccc1)C1CCNCC1`, inactive: -0.443%. Turning to `Cc1ccc(NC2(C#N)CCN(Cc3ccccc3)CC2)cc1`, the inhibition is inactive: -0.151%. Turning to `Cc1ccc(C(=O)NCC2(N3CCCCC3)CCCCC2)o1`, the inhibition is inactive: -1.61%. Regarding `Fc1ccccc1NC1CCN(Cc2ccccc2)CC1`, the inhibition was inactive: -0.715%. As for `Cc1ccccc1NC1(C#N)CCN(Cc2ccccc2)CC1`, the figure is inactive: -0.78%; as for `CCN1CCC(Nc2cccc(F)c2)CC1`, inactive: -0.582%.

Consider `O=C(NCC1(N2CCCCC2)CCCCC1)c1ccco1`, for which the inhibition was inactive: 0.486%.

With `Cn1c(=O)[nH]cc(N(CCCl)CCCl)c1=O`, the inhibition is inactive: 0.437%. As for `CN(C)c1ccc(C(=O)NCC2(N3CCCCC3)CCCCC2)cc1`, the figure is inactive: -2.39%; as for `CCOc1ncccc1C(=O)NCC1(N2CCOCC2)CCCCC1`, inactive: -0.613%; as for `CN1CCC(Nc2ccc(F)c(Cl)c2)CC1`, inactive: -0.391%.

Turning to `CCCOc1ccc(C(=O)NCC2(N(C)C)CCCCC2)cc1`, the inhibition is inactive: 0.462%. On to `CC(C)(C)OC(=O)N1CCC(Nc2ccccc2)CC1`, for which the inhibition was inactive: -1.69%. Regarding `O=C(O)C1(Nc2ccccc2)CCN(Cc2ccccc2)CC1`, the inhibition is inactive: 0.772%. For `CCC(CO)(C(=O)OC1CN2CCC1CC2)c1ccccc1` (configuration not stated) the value was inactive: -0.786%; for `COc1cc(OC)cc(C(=O)NCC2(N3CCOCC3)CCCCC2)c1`, inactive: -0.302%. For `CN1CCC(Nc2ccc(Cl)cc2)CC1`, the inhibition is inactive: 11.7%. In the case of `O=C(NCC1(N2CCOCC2)CCCCC1)c1cc(Br)ccc1Cl`, the inhibition is inactive: 0.463%. Consider `COc1cc(C(=O)NCC2(N3CCOCC3)CCCCC2)cc(OC)c1C`, for which the inhibition was inactive: 0.28%. For `COc1ccc(C(=O)NCC2(N3CCOCC3)CCCCC2)cc1OC` the value was inactive: -0.344%; for `N/C(=N\O)c1c(N)no[n+]1[O-]`, inactive: -0.531%. As for `CCOC(=O)N1CCC(Nc2ccc(C)cc2)CC1`, the figure is inactive: 0.688%; as for `O=C(OC1CN2CCC1CC2)C1c2ccccc2C=Cc2ccccc21` (configuration not stated), inactive: -0.344%. For `CC(C)(C)OC(=O)N1CCC(N(C(=O)c2ccccc2)c2ccc(Cl)cc2)CC1` the value was inactive: -2.02%. For the compound `N#Cc1ccc(C(=O)NCC2(N3CCCCC3)CCCCC2)cc1`, the inhibition is inactive: -1.43%. Take `c1ccc(CN2CCC(Nc3ccccc3)CC2)cc1`: the inhibition is inactive: -1.29%.

For `Cc1cc(N(CCCl)CCCl)ccc1C=O`, the inhibition was inactive: -0.371%. With `CN(C)C1(CNC(=O)c2cccc(C#N)c2)CCCCC1`, the inhibition is inactive: 0.764%.
